# Measured affinities in a library of Ab-14 heavy chain variants

Data: MIT Lincoln Laboratory AlphaSeq set, Li et al. 2023, doi:10.1038/s41467-023-39022-2, as distributed in FLAb.

Binding partner: SARS-CoV-2 spike HR2 peptide, sequence PDVDLGDISGINAS.

Ab-14 is the parent antibody, in scFv form: VH, then a (GGGGS)3 linker, then VL. The light chain is unchanged in all variants.
VH: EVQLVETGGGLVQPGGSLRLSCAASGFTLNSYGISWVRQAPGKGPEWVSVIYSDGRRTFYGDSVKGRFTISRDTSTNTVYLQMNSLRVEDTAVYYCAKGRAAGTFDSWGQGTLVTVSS
VL: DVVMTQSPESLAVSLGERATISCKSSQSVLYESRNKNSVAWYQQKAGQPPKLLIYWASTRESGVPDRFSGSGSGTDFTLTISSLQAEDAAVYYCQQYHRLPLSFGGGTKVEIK

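The starting antibody came from a phage panning campaign against this peptide. The variants were designed computationally from a first round of random CDR variants and then made and measured. Group labels follow the data file (Rand: our label for a block that the file lists under HC and that is probably the random mutants of the ten best first-round binders; En: ensemble of fine-tuned language models; HC: hill climbing; Gen: genetic algorithm; Gibbs: Gibbs sampling; a sequence that several methods proposed may carry one label only). AlphaSeq pools MATa yeast showing the antibodies with MATalpha yeast showing the peptide. The frequency of each diploid, read from paired DNA barcodes, reflects how well the two displayed proteins bind. The ratio of observed to expected reads was calibrated, replicate by replicate, on BCL2-family standards whose Kd was known from biolayer interferometry. The assay was run in six technical replicates.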

The parent's heavy chain CDRs are GFTLNSYGIS, VIYSDGRRTFYGDSVK, GRAAGTFDS; each variant's own CDRs replace them letter for letter.
Variants here have more than six changes.
Kd is apparent (estimated from mating counts) and averaged on the log scale over replicates with a signal. Smaller is tighter.
An entry "no signal" has no value in the source: the pair was not observed among the diploids in any replicate. This suggests poor binding but is not conclusive.
A sequence measured in both rounds can read differently, since the two assays cover different ranges.
As a blank, each scFv also met three strains without target: over all heavy chain designs, 1% of these pairings were detected, typically at 120 nM and seldom below 7.0 nM.
The authors' rule: three or more of the six replicates give a measured affinity, fewer mean a poor binder.
Of ten entries with the parent sequence, four were seen in most replicates (averages 2.2 nM to 240 nM), three in one and three in none, so single entries are noisy.

- GFDLNEYGIS, VIYADGQRTFYADSVK, GKIAGTFNV [En_HC] -> 99 pM (6 of 6 replicates)
- GMNLGEYGIS, VIYADGVRQAYVDKVK, GFNGVDGIV [En_Gibbs] -> no signal (0 of 6 replicates)
- GFDLNEYGIS, VIYADGSRTAYADDVK, GNEAGTFDV [En_Gen] -> 2.6 nM (6 of 6 replicates)
- GFDLDEYGIS, VIYADGRRTFYADSVK, GTNAGTFDS [En_HC] -> 500 pM (6 of 6 replicates)
- GFTLNSYGIQ, VIYSDGRHTFYDDCVK, GQLRGTFDS [Rand] -> no signal (0 of 6 replicates)
- GFQLNEYGIS, VIYADGRRTAYADSVK, GAYDLVAVL [En_Gibbs] -> no signal (0 of 6 replicates)
- GFDLTEYGIS, VIYADGRRTQYQDAVK, GLNGDMIVV [En_Gibbs] -> no signal (0 of 6 replicates)
- GFDLNEYGIS, VIYADGMRSYYADSVK, GNQAGTFDV [En_Gen] -> 350 pM (6 of 6 replicates)
- GFDLQELGIS, VIYADGTRQAYSEKVK, GQLAGFLVD [En_Gibbs] -> no signal (0 of 6 replicates)
- FFKLEDYGIS, VIYADGRRTAYVDNFK, GEIAGTFDV [En_Gibbs] -> no signal (0 of 6 replicates)
- GDGLDEYGIS, VIYADGMRSSYSNDVK, GTNFGNKMV [En_Gibbs] -> no signal (0 of 6 replicates)
- GFNLDEYGIS, VIYADGKRTEYSKNVK, GYIDFKLIG [En_Gibbs] -> no signal (0 of 6 replicates)
- GFDLNEYGIS, VIYADGRRTFYSDSVK, GTVGGTFDI [En_HC] -> 7.6 nM (6 of 6 replicates)
- GDKLEDYGIS, VIYADGRRSAYVDAVK, GEYAGYFNV [En_Gibbs] -> no signal (0 of 6 replicates)
- GFDLNEYGIS, VIYADGMRTAYADSVK, GNQAGTFDI [En_Gen] -> 110 pM (6 of 6 replicates)
- GFDLNEYGIS, VIYADGRRTAYTDSVK, GAFAGTFDQ [En_HC] -> 2.3 nM (6 of 6 replicates)
- GFDLNEYGIS, VIYADGVRTAYADDVK, GENAGTFDQ [En_Gen] -> 120 pM (6 of 6 replicates)
- GFTLDEYGIS, VIYADGKRTFYADSVK, GEAAGTFDI [En_HC] -> 1.0 nM (6 of 6 replicates)
- GFDLNEYGIS, VIYADGRRTSYIDSVK, GEAAGTFDM [En_HC] -> 620 pM (6 of 6 replicates)
- GNTLDEYGIS, VIYADGSRVAYADKFK, GMDVGTFDQ [En_Gibbs] -> no signal (0 of 6 replicates)
- GFDLDEYGIS, VIYADGQRKAYADSVK, GEVAGTFDV [En_Gen] -> 910 pM (6 of 6 replicates)
- GFDLNEYGIS, VIYADGKRSAYADSVK, GEVAGTFDV [En_Gen] -> 290 pM (6 of 6 replicates)
- GFDLNEYGIS, VIYADGRRTSYIDSVK, GENAGTFDM [En_HC] -> 960 pM (6 of 6 replicates)
- GFDLNEYGIS, VIYADGSRTFYSDSVK, GNQAGTFDL [En_HC] -> 3.6 nM (6 of 6 replicates)
- GFNLNEYGIS, VIYADGRRTAYADSVK, GEIAGTFDV [En_HC] -> 42 pM (6 of 6 replicates)
- GFDLNEYGIS, VIYADGRRTAYADSVK, GNTAGTFLS [En_HC] -> 1.2 nM (6 of 6 replicates)
- GFDLEEYGIS, VIYADGRRTFYSDSVK, GEAAGTFDM [En_HC] -> 1.3 nM (6 of 6 replicates)
- GFDLNEYGIS, VIYADGKRTAYADSVK, GNVAGTFDA [En_Gen] -> 310 pM (6 of 6 replicates)
- GFNLNEYGIS, VIYADGRRTAYADSVK, GEVAGTFDV [En_HC] -> 1.3 nM (6 of 6 replicates)
- GFDLNEYGIS, VIYADGRRTAYADSVK, GNTAGTFDM [En_Gen] -> 81 pM (6 of 6 replicates)
- GFSLNEYGIS, VIYADGMRTYYTESVK, GLINDQLFV [En_Gibbs] -> no signal (0 of 6 replicates)
- GFDLNEYGIS, VIYADGVRTAYSDSVK, GANAGTFDV [En_Gen] -> 810 pM (6 of 6 replicates)
- GFDLMEYGIS, VIYADGVRTAYQDQVK, GEEGGALYT [En_Gibbs] -> no signal (0 of 6 replicates)
- GFDLNEYGIS, VIYADGRRTFYTDSVK, GTLAGTFDV [En_HC] -> 260 pM (6 of 6 replicates)
- GFDLDEYGIS, VIYADGRRTAYSDSVK, GEVAGTFDQ [En_Gen] -> 360 pM (6 of 6 replicates)
- GFDLNEYGIS, VIYADGMRTYYADSVK, GNTAGTFDQ [En_Gen] -> 410 pM (6 of 6 replicates)
- GFDLNEYGIS, VIYADGKRTAYADSVK, GSNAGTFDI [En_Gen] -> 1.2 nM (6 of 6 replicates)
- GFNLEEYGIS, VIYADGMRSEYADNVK, GHKGNWFQD [En_Gibbs] -> 31 µM (1 of 6 replicates)
- GFSLDEYGIS, VIYADGIRAHYSDQVK, GVKNGNVIM [En_Gibbs] -> 1.4 µM (2 of 6 replicates)
- GFDLNEYGIS, VIYADGKRTAYSDSVK, GNNAGTFDI [En_Gen] -> 7.2 nM (6 of 6 replicates)
- GFDINEYGIS, VIYADGIRKVYANKFK, GDSGGIINF [En_Gibbs] -> 1.8 µM (1 of 6 replicates)
- GFNLDEYGIS, VIYADGMRTFYADSVK, GEVAGTFDT [En_HC] -> 1.4 nM (6 of 6 replicates)
- GFGLDEYGIS, VIYADGMRSNYATSVK, GYQAGVISV [En_Gibbs] -> no signal (0 of 6 replicates)
- GFTLNDYCIS, VEYSDGRRTFYGDSVK, GREALCFIS [Rand] -> no signal (0 of 6 replicates)
- GFDLNEYGIS, VIYADGRRTFYSDSVK, GEVAGTFVD [En_HC] -> 900 pM (6 of 6 replicates)
- GFDLNEYGIS, VIYADGRRTFYVDSVK, GVNAGTFDM [En_HC] -> 450 pM (6 of 6 replicates)
- GFDLNEYGIS, VIYADGRRTAYDDSVK, GTNAGTFDQ [En_HC] -> 750 pM (6 of 6 replicates)
- GFDLDEYGIS, VIYADGRRTFYADSVK, GEIAGTFDI [En_HC] -> 5.0 nM (6 of 6 replicates)
- GFNLDEYGIS, VIYADGVRKAYADKVK, GKVHWFHLQ [En_Gibbs] -> no signal (0 of 6 replicates)
- GFSLNEYGIS, VIYADGQRTSYQQSVK, DVNDDINQV [En_Gibbs] -> no signal (0 of 6 replicates)
- GADLNEYGIS, VIYADGSRTVYADTVK, GKHGGIFDS [En_Gibbs] -> 1.3 µM (1 of 6 replicates)
- GEDLLEYGIS, VIYADGIRVMYQNQVK, GNVAGFFTL [En_Gibbs] -> no signal (0 of 6 replicates)